Screening data: PubChem, several laboratories
Only some compounds are listed: those with a hit (about 2.3% of all), similar ones and a draw of the others.
MC4R barr agon – MC4R agonists recruiting beta-arrestin, primary screen, cell-based, luminescence, agonist arm of biased-ligand search; Melanocortin receptor 4 (Homo sapiens), P32245; U2OS MC4R beta-arrestin complementation; percent of melanotan II response, DMSO zero; activation, % at 8.9 µM; hit rate 0.98% among 360,000; AID 540308, 2011;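 active means activation above a per-plate cutoff, the mean activation of sample wells on that plate plus 3 SD, cut at about 8% in these data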
MC4R antag cAMP – MC4R antagonists of cAMP signaling, primary screen, cell-based, TR-FRET, antagonist arm of biased-ligand search | MC4R-expressing cells, MTII-stimulated cAMP, LANCE TR-FRET | inhibition, % at 6.5 µM | hit rate 0.48% among 360,000 | AID 540295, 2011;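 active means inhibition above its plate's cutoff, the mean of tested wells on that plate plus 3 SD, cut at about 29% in these data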;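 further: 0% = Melanotan II alone and 100% = Melanotan II plus saturating MCL0020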
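Material – human MC4R-expressing U2OS cells · Repeats – no replicates · Detection – TR-FRET with Eu-cAMP and labeled anti-cAMP, 671 nm · Times – compound 30 min, challenge 1 h, detection 1 h · Compound – single nominal compound dose of 6.5 µM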
NRP1-CendR mod – modulators of CendR peptide binding to NRP-1, primary screen, biochemical, fluorescence polarization, uHTS; Neuropilin-1 (Homo sapiens), O14786; hit rate 0.85% among 360,000; FAM-RPARPAR peptide binding to NRP-1; inhibition, % at 25 µM;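 active means inhibition or corrected inhibition above about 18%, plus a signal ratio from 0.5 to 1.5, limit read from the data, passing the limit was not always enough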
ASAP1 GAP inh – inhibitors of human ASAP1 ArfGAP activity, primary screen, biochemical, fluorescence polarization. hit rate 0.19% among 360,000. inhibition, % at 16.5 µM. AID 624377, 2012. Arf-GAP with SH3 domain, ANK repeat and PH domain-containing protein 1 (Homo sapiens), …. ASAP1-stimulated ARF1 GTP hydrolysis, GDP FP detection; in the data active means inhibition above about 25%;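 further: 0% = vehicle with enzyme and substrate and 100% = no enzyme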
ARFGAP1 inhibitor – inhibitors of rat ARFGAP1 GAP activity, primary screen, biochemical, fluorescence polarization, GDP tracer; Arfgap1-stimulated ARF1 GTP hydrolysis, GDP FP detection; inhibition, % at 16.5 µM; hit rate 0.26% among 360,000; ADP-ribosylation factor GTPase-activating protein 1 (Rattus norvegicus), Q62848;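 active means inhibition above a per-plate limit, mean inhibition of low control wells plus 3 SD, cut at about 25% in these data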;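 further: 0% = DMSO wells with enzyme and 100% = wells lacking Arfgap1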
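Replicates: Single well per compound | Assay system: Truncated rat Arfgap1 GAP domain | Control set: No-Arfgap1 wells (100%) versus DMSO full-reaction wells (0%) | Times: Enzyme reaction 120 min at 25 °C after 20 min preincubation | Reagent: Human ARF1(Δ1-17)-GTP substrate | Measured by: Tracer-displacement fluorescence polarization with EDTA stop, 620/688 nm | Measure: Percent inhibition of Arfgap1-stimulated GTP hydrolysis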
Yeast UUG start – alters start codon recognition fidelity in yeast. S. cerevisiae UUG-firefly luciferase reporter, luminescence/redox ratio. AID 602363. activity score, % at 18.7 µM. hit rate 0.13% among 350,000;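 active = replicate mean at a twofold rise or more, about +100% in these data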;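 note: firefly luciferase made from a UUG start codon reports start codon fidelity; reporter light over untreated wells divided by growth signal over untreated wells; some hits fall short of that in this replicate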
MC4R barr ag – MC4R beta-arrestin agonists, retest, confirmation, cell-based, luminescence, U2OS; U2OS MC4R beta-arrestin recruitment; scaled DMSO 0%, Melanotan II 100%; activation, % at 8.9 µM; shares compounds with MC4R barr agon; AID 602192, 2012; hit rate 31% among 2,400;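 active means mean activation across replicates above the hit cutoff set in the earlier primary screen, cut at about 8% in these data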
MOR DOR agonist – agonists of MOR-DOR heterodimerization, counter-screen for MC4R biased agonist project, cell-based, luminescence; shares compounds with MC4R barr agon; U2OS PathHunter beta-arrestin, beta-gal luminescence; percent of deltorphin B response, DMSO zero; activation, % at 9.2 µM; hit rate 5.8% among 2,400;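 active means mean activation across replicates exceeds the hit threshold derived in the earlier primary screen, cut at about 18% in these data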;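 further: 100% = deltorphin B at 0.9 µM final and 0% = DMSO alone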
Starred values were filed as active, the others as inactive; nt = not tested or not shown.

Protein sequences, listed by entry. Tags and fused reporters are not part of them. Residues count along the entry.
Melanocortin receptor 4 (Homo sapiens), P32245, UniProt P32245, whole entry, looked up: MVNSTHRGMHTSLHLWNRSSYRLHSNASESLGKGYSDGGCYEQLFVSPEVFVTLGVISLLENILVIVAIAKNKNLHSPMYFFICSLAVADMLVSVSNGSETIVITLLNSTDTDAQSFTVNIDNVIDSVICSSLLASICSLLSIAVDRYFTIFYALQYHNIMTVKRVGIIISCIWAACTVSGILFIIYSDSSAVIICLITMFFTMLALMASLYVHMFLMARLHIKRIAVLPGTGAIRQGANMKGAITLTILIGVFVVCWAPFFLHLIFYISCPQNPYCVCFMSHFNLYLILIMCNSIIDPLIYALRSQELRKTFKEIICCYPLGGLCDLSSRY
Neuropilin-1 (Homo sapiens), O14786, UniProt O14786, whole entry, looked up: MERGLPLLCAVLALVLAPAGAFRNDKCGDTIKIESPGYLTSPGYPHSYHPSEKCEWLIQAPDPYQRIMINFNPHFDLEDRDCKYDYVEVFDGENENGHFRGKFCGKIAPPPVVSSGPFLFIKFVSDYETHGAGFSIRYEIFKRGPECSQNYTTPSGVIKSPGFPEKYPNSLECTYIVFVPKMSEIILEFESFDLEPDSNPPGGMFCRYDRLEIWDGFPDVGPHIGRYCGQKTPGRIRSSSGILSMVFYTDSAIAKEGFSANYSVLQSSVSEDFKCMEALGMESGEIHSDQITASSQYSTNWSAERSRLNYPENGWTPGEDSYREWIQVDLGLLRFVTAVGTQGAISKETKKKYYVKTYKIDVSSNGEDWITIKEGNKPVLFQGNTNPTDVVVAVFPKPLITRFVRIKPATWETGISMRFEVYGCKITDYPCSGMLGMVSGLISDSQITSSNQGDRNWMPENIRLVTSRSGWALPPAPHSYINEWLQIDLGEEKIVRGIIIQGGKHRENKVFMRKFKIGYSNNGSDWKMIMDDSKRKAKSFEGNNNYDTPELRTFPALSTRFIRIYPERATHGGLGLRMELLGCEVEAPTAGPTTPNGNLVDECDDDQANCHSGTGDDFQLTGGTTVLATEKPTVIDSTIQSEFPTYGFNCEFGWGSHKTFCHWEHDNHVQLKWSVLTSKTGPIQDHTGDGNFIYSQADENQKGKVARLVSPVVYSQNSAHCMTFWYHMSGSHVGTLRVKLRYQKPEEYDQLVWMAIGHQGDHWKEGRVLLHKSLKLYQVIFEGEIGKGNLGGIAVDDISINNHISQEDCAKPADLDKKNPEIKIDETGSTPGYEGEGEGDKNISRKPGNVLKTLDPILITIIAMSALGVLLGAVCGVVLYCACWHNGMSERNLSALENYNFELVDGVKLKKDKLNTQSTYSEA
ADP-ribosylation factor GTPase-activating protein 1 (Rattus norvegicus), Q62848, UniProt Q62848, whole entry, looked up: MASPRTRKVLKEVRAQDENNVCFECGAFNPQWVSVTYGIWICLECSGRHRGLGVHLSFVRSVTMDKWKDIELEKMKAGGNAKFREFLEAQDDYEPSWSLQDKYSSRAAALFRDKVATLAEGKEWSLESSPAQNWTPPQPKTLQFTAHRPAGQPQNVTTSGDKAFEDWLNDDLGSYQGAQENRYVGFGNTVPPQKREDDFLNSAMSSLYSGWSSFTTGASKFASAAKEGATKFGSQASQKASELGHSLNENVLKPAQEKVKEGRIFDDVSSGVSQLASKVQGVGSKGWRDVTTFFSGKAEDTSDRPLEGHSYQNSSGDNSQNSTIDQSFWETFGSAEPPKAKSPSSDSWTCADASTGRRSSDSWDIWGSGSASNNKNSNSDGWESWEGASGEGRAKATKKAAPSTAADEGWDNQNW
ADP-ribosylation factor GTPase-activating protein 1 (Rattus norvegicus), Q62848, UniProt Q62848, 1-136 limits assumed: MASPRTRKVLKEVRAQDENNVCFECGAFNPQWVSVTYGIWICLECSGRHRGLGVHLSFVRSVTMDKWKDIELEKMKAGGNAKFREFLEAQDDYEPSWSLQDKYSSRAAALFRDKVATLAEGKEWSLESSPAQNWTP

compound,MC4R barr agon,MC4R antag cAMP,NRP1-CendR mod,ASAP1 GAP inh,ARFGAP1 inhibitor,Yeast UUG start,MC4R barr ag,MOR DOR agonist
C/C(=N\NC(=O)COc1cccc2ccccc12)c1cccs1,17*,0,6,-8,-5,-18,17*,6
O=C(COc1cccc2ccccc12)N/N=C/C=C/c1ccccc1,9.7*,3,7,7,15,nt,4,6
Cc1ccccc1OCC(=O)N/N=C/C=C/c1ccccc1,10*,-5,-1,10,-1,nt,3,8
CNC[C@@H]1Oc2ccc(NS(=O)(=O)c3cccs3)cc2C(=O)N([C@H](C)CO)C[C@@H]1C,nt,nt,nt,nt,nt,-2,nt,nt
Cc1nc2c(sc(=S)n2Cc2ccco2)c(=O)n1CC(=O)Nc1ccc(F)cc1,15*,13,-26,-4,-7,-9,1,6
Cc1nc2c(sc(=S)n2Cc2ccco2)c(=O)n1CC(=O)Nc1cc(F)ccc1F,12*,9,9,17,2,-22,6,4
COc1cccc(S(=O)(=O)N2C[C@H](O)COC[C@H]3O[C@@H](CC(=O)N4CCOCC4)CC[C@@H]32)c1,nt,nt,nt,nt,nt,-3,nt,nt
COc1ccccc1-c1cn(CC[C@H]2CC[C@@H](NC(=O)c3ccccc3F)[C@@H](CO)O2)nn1,nt,nt,nt,nt,nt,-1,nt,nt
CCCNC(=O)N(C)C[C@@H]1Oc2ncc(C#CC3(O)CCCC3)cc2C(=O)N([C@H](C)CO)C[C@H]1C,nt,nt,nt,nt,nt,10,nt,nt
Cc1ccc(C=C(C#N)C(=O)c2ccccc2)cc1,nt,nt,-34,0,-3,nt,nt,nt

Other records follow:
compound,MC4R barr agon,MC4R antag cAMP,NRP1-CendR mod,ASAP1 GAP inh,ARFGAP1 inhibitor,Yeast UUG start,MC4R barr ag,MOR DOR agonist
CN(C)c1ccc(/C=C(\C#N)C(=O)c2ccccc2)cc1,19*,11,143,-9,3,-10,-1,2
O=C(Nc1ccc(-c2noc(COc3ccccc3Cl)n2)cc1)c1ccco1,27*,0,-2,12,19,-18,8,5
C[C@@H]1CN([C@@H](C)CO)C(=O)c2cc(NS(=O)(=O)c3ccccc3)ccc2O[C@@H](C)CCCCO[C@@H]1CN(C)S(=O)(=O)c1ccccc1,nt,nt,nt,nt,nt,2,nt,nt
COc1cc(OC)c(NC(=O)c2c(-c3ccccc3)noc2C)cc1Cl,25*,8,-11,-7,4,3,6,6
COc1ccc(Cl)cc1NC(=O)c1c(-c2ccccc2)noc1C,27*,-1,4,10,10,-12,0,3
COc1ccc(F)cc1-c1cc(NC=O)c2ncc(-c3cccc(C(F)(F)F)c3)n2c1,10*,-23,-18,5,9,-2,6,2
O=CNc1cc(-c2ccc(C(=O)NC3CC3)cc2)cn2c(-c3ccccc3)cnc12,6,7,-43,-1,8,-5,nt,nt
O=CNc1cc(-c2cccc(O)c2)cn2c(-c3ccc(F)cc3)cnc12,1,3,3,-2,0,-8,nt,nt
CC(=O)c1ccc(-c2cnc3c(NC=O)cc(-c4ccc(C(=O)NC5CC5)cc4)cn23)cc1,11*,17,-30,12,-5,-4,5,3
CC(=O)c1cccc(-c2cnc3c(NC=O)cc(-c4ccc(F)cc4)cn23)c1,14*,5,-30,-5,1,15,15*,4

More structures follow.
Short keys – A = MC4R barr agon; B = MC4R antag cAMP; C = NRP1-CendR mod; D = ASAP1 GAP inh; E = ARFGAP1 inhibitor; F = Yeast UUG start; G = MC4R barr ag; H = MOR DOR agonist
COc1ccccc1-c1cc(NC=O)c2ncc(-c3cccc(C(C)=O)c3)n2c1
  A: 9.9*; B: -43; C: -9; D: -1; E: 14; F: -5; G: 14*; H: 4
C[C@@H]1CN([C@@H](C)CO)C(=O)c2cc(NC(=O)c3ccncc3)ccc2O[C@H]1CN(C)C
  A: nt; B: nt; C: nt; D: nt; E: nt; F: 2; G: nt; H: nt
COc1cccc(-c2cnc3c(NC(C)=O)cc(-c4ccsc4)cn23)c1
  A: 37*; B: 25; C: -6; D: 0; E: 9; F: -10; G: 42*; H: 3
COc1cccc(-c2cc(NC(C)=O)c3ncc(-c4ccc(OC)c(OC)c4)n3c2)c1
  A: 17*; B: 6; C: -20; D: 1; E: 5; F: -12; G: 11*; H: 3
COc1cccc(-c2cnc3c(NC(C)=O)cc(-c4cccc(C(=O)N(C)C)c4)cn23)c1
  A: 3; B: 11; C: 12; D: 5; E: 5; F: -6; G: nt; H: nt
COc1cccc(-c2cnc3c(NC(C)=O)cc(-c4ccc(OC)c(OC)c4)cn23)c1
  A: 7; B: 7; C: -5; D: 4; E: -11; F: -5; G: nt; H: nt
COc1ccc(-c2cc(NC(C)=O)c3ncc(-c4cccc(C(C)=O)c4)n3c2)cc1OC
  A: 26*; B: 13; C: -20; D: -1; E: 1; F: -3; G: 27*; H: 2
Cc1noc(C)c1NC(=O)N(C)C[C@H]1Oc2ccc(NS(C)(=O)=O)cc2CC(=O)N([C@@H](C)CO)C[C@@H]1C
  A: nt; B: nt; C: nt; D: nt; E: nt; F: 4; G: nt; H: nt
COc1ccc(S(=O)(=O)N(C)C[C@H]2Oc3ccc(NS(=O)(=O)c4c(C)noc4C)cc3C(=O)N([C@@H](C)CO)C[C@H]2C)cc1
  A: nt; B: nt; C: nt; D: nt; E: nt; F: 8; G: nt; H: nt
CO[C@H]1CN(C)C(=O)c2cc(NC(=O)C3CCCC3)ccc2OC[C@H](C)N(C)C[C@@H]1C
  A: nt; B: nt; C: nt; D: nt; E: nt; F: 15; G: nt; H: nt
Fc1ccc(Cn2c(-c3cscn3)nc3ccccc32)c(Cl)c1
  A: 9.7*; B: 4; C: 5; D: -4; E: 9; F: -17; G: 3; H: 8
C=CCn1c(-c2ccccc2)cc(SC)c(C#N)c1=O
  A: 12*; B: -4; C: -8; D: -2; E: -8; F: 6; G: 0; H: 3
CCCn1c(-c2ccccc2)cc(SC)c(C#N)c1=O
  A: -2; B: -8; C: 4; D: 5; E: 7; F: nt; G: nt; H: nt
Cc1ccc(O)c(C(=O)/C=C/c2ccc3c(c2)OCCCO3)c1
  A: 23*; B: -3; C: -5; D: 4; E: 2; F: nt; G: 24*; H: 5
CCOC(=O)c1c(NC(=O)Cn2nc(C(F)F)cc2C(F)F)sc(C)c1C
  A: -1; B: 16; C: -2; D: 8; E: 8; F: -14; G: nt; H: nt
CCOC(=O)c1c(NC(=O)Cn2nc(C(F)(F)F)cc2C)sc(C)c1C
  A: 15*; B: 1; C: 2; D: -11; E: -4; F: -4; G: 6; H: 14
CCSc1nnc(NC(=O)c2csc3c2CCCC3)s1
  A: 15*; B: 0; C: 6; D: 0; E: 11; F: -11; G: 27*; H: 15

Retrieved one by one from the list above (four):
Short keys – A = MC4R barr agon; B = MC4R antag cAMP; C = NRP1-CendR mod; D = ASAP1 GAP inh; E = ARFGAP1 inhibitor; F = Yeast UUG start; G = MC4R barr ag; H = MOR DOR agonist
CCOC(=O)c1c(NC(=O)Cn2nc(C(F)(F)F)cc2C)sc(C)c1C
  A: 15*; B: 1; C: 2; D: -11; E: -4; F: -4; G: 6; H: 14
CCSc1nnc(NC(=O)c2csc3c2CCCC3)s1
  A: 15*; B: 0; C: 6; D: 0; E: 11; F: -11; G: 27*; H: 15
C=CCn1c(-c2ccccc2)cc(SC)c(C#N)c1=O
  A: 12*; B: -4; C: -8; D: -2; E: -8; F: 6; G: 0; H: 3
Fc1ccc(Cn2c(-c3cscn3)nc3ccccc32)c(Cl)c1
  A: 9.7*; B: 4; C: 5; D: -4; E: 9; F: -17; G: 3; H: 8
